Chains of the proteins cited; added tags and fusions are not shown. Lines headed by an entry give the natural chain unless they say otherwise; changes in a name come on top.
UniProt O14965: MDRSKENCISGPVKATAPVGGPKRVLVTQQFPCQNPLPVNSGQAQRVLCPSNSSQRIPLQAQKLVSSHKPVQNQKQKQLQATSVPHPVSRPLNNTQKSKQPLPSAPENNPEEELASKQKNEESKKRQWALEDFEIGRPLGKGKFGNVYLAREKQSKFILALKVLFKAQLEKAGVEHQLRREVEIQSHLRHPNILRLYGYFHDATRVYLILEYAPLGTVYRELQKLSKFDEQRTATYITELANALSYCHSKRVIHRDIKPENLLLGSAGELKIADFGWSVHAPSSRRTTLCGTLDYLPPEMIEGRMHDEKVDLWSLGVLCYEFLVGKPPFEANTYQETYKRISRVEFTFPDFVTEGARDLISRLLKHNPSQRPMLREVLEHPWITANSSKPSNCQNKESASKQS
UniProt P15056, whole entry: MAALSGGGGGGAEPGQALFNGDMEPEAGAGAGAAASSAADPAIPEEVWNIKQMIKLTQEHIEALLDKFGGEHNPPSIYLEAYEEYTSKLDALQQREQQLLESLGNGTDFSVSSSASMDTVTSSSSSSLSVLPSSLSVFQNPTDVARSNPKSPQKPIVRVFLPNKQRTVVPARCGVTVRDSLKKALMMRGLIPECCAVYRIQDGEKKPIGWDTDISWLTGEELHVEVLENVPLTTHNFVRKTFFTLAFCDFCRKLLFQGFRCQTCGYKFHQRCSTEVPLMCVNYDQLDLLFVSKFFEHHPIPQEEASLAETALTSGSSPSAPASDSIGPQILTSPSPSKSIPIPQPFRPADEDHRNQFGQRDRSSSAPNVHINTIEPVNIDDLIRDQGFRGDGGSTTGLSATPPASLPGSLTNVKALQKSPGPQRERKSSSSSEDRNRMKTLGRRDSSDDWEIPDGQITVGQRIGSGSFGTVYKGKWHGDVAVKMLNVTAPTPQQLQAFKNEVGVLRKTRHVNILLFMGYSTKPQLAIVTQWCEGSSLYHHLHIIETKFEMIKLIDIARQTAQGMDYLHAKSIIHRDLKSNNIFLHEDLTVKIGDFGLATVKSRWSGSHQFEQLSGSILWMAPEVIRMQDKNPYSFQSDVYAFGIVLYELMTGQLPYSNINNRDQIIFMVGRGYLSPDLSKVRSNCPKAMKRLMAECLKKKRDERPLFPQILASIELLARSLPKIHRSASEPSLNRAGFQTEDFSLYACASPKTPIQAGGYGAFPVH
UniProt P17948, whole entry: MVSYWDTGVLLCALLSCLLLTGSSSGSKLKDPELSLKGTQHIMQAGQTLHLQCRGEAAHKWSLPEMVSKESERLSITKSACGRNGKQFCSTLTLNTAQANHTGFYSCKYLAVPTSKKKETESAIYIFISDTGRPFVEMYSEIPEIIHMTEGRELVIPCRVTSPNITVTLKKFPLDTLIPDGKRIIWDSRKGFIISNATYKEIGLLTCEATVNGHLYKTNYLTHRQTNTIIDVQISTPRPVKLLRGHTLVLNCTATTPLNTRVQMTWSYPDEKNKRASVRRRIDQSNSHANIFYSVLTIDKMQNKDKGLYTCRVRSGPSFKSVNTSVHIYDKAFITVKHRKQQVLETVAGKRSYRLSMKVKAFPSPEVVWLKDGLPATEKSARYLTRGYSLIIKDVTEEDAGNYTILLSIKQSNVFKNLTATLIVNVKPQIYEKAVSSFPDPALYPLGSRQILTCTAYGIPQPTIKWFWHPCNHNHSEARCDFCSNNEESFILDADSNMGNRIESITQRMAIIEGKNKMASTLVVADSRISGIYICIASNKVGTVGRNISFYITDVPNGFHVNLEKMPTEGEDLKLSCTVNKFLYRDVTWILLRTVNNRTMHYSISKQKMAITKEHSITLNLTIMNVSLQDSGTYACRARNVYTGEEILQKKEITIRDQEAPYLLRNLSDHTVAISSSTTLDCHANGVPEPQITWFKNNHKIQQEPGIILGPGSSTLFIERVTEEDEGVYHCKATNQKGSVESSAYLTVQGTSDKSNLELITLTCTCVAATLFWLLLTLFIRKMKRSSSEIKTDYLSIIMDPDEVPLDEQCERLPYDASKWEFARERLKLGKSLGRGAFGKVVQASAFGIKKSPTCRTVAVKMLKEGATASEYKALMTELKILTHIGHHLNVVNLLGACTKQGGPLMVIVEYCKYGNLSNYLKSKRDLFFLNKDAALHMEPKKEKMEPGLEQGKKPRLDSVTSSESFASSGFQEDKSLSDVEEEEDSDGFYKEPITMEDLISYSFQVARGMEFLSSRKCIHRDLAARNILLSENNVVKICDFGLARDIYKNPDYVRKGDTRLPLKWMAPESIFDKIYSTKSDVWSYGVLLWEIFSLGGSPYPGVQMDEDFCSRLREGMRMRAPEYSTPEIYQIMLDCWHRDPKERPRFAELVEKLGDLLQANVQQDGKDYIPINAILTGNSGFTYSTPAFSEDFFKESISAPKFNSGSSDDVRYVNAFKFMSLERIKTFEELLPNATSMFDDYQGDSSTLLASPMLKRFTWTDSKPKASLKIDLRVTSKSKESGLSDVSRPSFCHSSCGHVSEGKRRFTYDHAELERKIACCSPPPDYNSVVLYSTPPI
UniProt P49840: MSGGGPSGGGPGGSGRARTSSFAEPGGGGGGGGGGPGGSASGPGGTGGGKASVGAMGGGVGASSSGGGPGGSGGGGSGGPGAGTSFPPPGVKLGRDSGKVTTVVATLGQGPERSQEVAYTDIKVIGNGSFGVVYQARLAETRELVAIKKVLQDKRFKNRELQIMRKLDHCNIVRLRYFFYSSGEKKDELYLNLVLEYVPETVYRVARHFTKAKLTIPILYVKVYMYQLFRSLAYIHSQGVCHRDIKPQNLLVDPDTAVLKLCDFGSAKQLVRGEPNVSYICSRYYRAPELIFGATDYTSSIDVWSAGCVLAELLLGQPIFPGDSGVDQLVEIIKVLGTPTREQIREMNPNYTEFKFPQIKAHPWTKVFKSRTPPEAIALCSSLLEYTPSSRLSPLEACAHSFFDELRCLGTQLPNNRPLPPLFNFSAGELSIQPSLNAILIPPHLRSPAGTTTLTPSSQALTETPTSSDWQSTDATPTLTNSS
UniProt P53667: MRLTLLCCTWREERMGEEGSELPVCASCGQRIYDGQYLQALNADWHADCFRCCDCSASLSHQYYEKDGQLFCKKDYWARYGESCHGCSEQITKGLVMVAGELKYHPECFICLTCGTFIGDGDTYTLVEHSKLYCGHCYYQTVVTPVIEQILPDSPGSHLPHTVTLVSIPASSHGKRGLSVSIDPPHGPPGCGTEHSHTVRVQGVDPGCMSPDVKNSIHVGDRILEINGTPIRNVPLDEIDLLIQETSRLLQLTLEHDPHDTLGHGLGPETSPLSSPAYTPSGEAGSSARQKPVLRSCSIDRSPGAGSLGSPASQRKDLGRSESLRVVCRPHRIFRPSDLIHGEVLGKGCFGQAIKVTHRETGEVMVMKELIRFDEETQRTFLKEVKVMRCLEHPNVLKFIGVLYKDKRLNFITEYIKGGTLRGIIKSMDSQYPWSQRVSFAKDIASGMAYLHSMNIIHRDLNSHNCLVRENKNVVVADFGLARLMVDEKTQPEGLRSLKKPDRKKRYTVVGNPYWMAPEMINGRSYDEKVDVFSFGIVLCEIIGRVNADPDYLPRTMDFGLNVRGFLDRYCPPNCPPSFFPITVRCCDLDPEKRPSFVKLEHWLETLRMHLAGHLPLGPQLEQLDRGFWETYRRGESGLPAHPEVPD
UniProt P53350, whole entry: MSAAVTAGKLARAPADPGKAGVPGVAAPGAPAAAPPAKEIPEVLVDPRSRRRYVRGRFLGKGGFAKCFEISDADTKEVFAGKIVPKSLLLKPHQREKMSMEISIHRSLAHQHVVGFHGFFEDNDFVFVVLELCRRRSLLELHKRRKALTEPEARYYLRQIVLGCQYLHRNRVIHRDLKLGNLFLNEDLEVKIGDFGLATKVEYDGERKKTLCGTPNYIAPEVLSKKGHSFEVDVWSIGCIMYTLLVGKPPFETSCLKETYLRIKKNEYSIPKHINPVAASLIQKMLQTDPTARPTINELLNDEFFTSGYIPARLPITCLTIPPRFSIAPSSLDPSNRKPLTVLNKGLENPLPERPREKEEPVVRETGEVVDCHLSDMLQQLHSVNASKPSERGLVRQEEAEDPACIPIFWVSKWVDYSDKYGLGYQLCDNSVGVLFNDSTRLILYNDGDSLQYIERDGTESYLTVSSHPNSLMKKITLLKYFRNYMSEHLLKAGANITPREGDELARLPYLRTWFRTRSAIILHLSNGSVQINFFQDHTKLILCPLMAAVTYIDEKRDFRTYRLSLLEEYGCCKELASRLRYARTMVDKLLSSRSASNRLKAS
UniProt Q13546: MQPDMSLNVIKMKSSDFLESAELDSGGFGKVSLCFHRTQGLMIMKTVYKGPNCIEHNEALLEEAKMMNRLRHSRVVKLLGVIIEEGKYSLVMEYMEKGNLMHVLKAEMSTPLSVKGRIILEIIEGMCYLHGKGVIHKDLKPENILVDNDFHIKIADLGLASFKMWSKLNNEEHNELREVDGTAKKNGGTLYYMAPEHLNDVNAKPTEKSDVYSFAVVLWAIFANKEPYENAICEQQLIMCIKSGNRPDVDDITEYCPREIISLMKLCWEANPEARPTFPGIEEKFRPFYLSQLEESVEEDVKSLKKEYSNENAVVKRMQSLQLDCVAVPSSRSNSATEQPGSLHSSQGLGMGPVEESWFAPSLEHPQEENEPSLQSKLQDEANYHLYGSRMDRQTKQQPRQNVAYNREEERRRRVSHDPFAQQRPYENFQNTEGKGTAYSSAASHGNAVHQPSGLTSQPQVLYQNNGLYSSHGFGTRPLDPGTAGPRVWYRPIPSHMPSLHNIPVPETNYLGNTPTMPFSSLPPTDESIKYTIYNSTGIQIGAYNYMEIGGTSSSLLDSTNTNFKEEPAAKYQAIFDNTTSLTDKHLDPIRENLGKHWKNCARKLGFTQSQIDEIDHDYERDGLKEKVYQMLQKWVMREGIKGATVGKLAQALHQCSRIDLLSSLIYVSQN
UniProt O00506, whole entry, looked up: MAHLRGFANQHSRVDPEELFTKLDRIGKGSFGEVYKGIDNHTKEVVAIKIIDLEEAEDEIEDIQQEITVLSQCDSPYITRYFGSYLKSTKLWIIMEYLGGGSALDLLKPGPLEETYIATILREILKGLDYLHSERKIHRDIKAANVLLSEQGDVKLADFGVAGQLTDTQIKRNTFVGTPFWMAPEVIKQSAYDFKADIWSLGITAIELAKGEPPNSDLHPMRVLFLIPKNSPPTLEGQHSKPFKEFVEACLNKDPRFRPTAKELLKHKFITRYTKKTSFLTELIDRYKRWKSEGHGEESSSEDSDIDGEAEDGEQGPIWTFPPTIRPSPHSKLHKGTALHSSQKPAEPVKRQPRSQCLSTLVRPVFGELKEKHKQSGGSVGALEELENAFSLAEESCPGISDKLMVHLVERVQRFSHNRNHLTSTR
UniProt Q02763: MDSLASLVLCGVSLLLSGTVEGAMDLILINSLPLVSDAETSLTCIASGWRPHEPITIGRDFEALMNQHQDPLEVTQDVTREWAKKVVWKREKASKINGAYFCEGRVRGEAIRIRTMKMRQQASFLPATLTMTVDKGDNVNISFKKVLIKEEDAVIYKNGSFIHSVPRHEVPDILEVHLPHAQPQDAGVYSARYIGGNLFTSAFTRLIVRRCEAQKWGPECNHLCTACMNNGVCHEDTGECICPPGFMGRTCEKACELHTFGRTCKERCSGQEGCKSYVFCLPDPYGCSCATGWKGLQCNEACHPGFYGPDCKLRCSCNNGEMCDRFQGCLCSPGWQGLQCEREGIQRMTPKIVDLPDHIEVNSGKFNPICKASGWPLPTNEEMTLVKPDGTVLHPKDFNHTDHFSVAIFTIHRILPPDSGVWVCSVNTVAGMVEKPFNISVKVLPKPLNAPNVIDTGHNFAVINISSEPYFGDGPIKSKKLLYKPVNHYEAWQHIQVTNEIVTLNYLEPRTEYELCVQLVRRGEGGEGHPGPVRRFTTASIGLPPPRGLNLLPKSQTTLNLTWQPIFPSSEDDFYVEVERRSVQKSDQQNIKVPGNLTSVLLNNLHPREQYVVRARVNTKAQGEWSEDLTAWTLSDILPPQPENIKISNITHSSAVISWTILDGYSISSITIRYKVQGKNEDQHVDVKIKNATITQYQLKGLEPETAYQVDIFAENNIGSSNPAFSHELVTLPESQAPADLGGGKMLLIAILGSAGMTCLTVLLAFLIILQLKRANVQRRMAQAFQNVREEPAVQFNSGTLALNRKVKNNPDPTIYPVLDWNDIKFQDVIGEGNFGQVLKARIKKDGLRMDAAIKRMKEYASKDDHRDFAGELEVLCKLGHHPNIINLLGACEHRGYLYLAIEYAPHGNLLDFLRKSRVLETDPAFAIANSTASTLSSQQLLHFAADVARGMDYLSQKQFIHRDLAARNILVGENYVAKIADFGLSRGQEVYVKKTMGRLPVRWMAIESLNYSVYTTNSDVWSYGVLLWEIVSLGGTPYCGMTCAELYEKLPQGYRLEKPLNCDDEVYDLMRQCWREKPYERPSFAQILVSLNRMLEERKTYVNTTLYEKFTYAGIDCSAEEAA

In ChEMBL document CHEMBL5537184, “Discovery, Optimization, and Evaluation of Novel Pyridin-2(1H)-one Analogues as Potent TRK Inhibitors for Cancer Treatment” (J Med Chem, 2024):

How the values were obtained:
[1] = target: ALK tyrosine kinase receptor (Homo sapiens) (UniProt Q9UM73); assay: Inhibition of human recombinant ALK using KKKSPGEYVNIEF as substrate assessed as remaining activity in presence of [33P]-ATP measured at 1 uM after 40 mins by radiometric scintillation counting analysis relative to control
[2] = target: Aurora kinase A (Homo sapiens) (UniProt O14965); assay: Inhibition of human Aurora-A assessed as remaining activity at 1 uM by Eurofins kinase assay relative to control
[3] = target: Tyrosine-protein kinase BTK (Homo sapiens) (UniProt Q06187); assay: Inhibition of human BTK assessed as remaining activity at 1 uM by Eurofins kinase assay relative to control
[4] = target: Serine/threonine-protein kinase B-raf (Homo sapiens) (UniProt P15056); assay: Inhibition of human B-Raf assessed as remaining activity at 1 uM by Eurofins kinase assay relative to control
[5] = target: Cyclin-dependent kinase 1/cyclin B1 (Homo sapiens) (UniProt P06493+P14635); assay: Inhibition of human CDK1/cyclinB assessed as remaining activity at 1 uM by Eurofins kinase assay relative to control; assay type: protein-complex assay
[6] = target: Serine/threonine-protein kinase Chk2 (Homo sapiens) (UniProt O96017); assay: Inhibition of human CHK2 assessed as remaining activity at 1 uM by Eurofins kinase assay relative to control
[7] = target: Mast/stem cell growth factor receptor Kit (Homo sapiens) (UniProt P10721); assay: Inhibition of human cKit assessed as remaining activity at 1 uM by Eurofins kinase assay relative to control
[8] = target: Epidermal growth factor receptor (Homo sapiens) (UniProt P00533); assay: Inhibition of human EGFR assessed as remaining activity at 1 uM by Eurofins kinase assay relative to control
[9] = target: Vascular endothelial growth factor receptor 1 (Homo sapiens) (UniProt P17948); assay: Inhibition of human Flt1 assessed as remaining activity at 1 uM by Eurofins kinase assay relative to control
[10] = test system: Receptor-type tyrosine-protein kinase FLT3 (Homo sapiens), P36888 [D835Y]; assay: Inhibition of human Flt3 (D835Y) mutant assessed as remaining activity at 1 uM by Eurofins kinase assay relative to control
[11] = target: Glycogen synthase kinase-3 alpha (Homo sapiens) (UniProt P49840); assay: Inhibition of human GSK3a assessed as remaining activity at 1 uM by Eurofins kinase assay relative to control
[12] = target: Tyrosine-protein kinase JAK1 (Homo sapiens) (UniProt P23458); assay: Inhibition of human JAK1 assessed as remaining activity at 1 uM by Eurofins kinase assay relative to control
[13] = target: LIM domain kinase 1 (Homo sapiens) (UniProt P53667); assay: Inhibition of human LIMK1 assessed as remaining activity at 1 uM by Eurofins kinase assay relative to control
[14] = target: Dual specificity mitogen-activated protein kinase kinase 1 (Homo sapiens) (UniProt Q02750); assay: Inhibition of human MEK1 assessed as remaining activity at 1 uM by Eurofins kinase assay relative to control
[15] = target: Hepatocyte growth factor receptor (Homo sapiens) (UniProt P08581); assay: Inhibition of human Met assessed as remaining activity at 1 uM by Eurofins kinase assay relative to control
[16] = target: Serine/threonine-protein kinase mTOR (Homo sapiens) (UniProt P42345); assay: Inhibition of human mTOR assessed as remaining activity at 1 uM by Eurofins kinase assay relative to control
[17] = target: Serine/threonine-protein kinase Nek1 (Homo sapiens) (UniProt Q96PY6); assay: Inhibition of human NEK1 assessed as remaining activity at 1 uM by Eurofins kinase assay relative to control
[18] = target: Serine/threonine-protein kinase pim-1 (Homo sapiens) (UniProt P11309); assay: Inhibition of human Pim-1 assessed as remaining activity at 1 uM by Eurofins kinase assay relative to control
[19] = target: Serine/threonine-protein kinase PLK1 (Homo sapiens) (UniProt P53350); assay: Inhibition of human Plk1 assessed as remaining activity at 1 uM by Eurofins kinase assay relative to control
[20] = target: Proto-oncogene tyrosine-protein kinase receptor Ret (Homo sapiens) (UniProt P07949); assay: Inhibition of human Ret assessed as remaining activity at 1 uM by Eurofins kinase assay relative to control
[21] = target: Receptor-interacting serine/threonine-protein kinase 1 (Homo sapiens) (UniProt Q13546); assay: Inhibition of human RIPK1 assessed as remaining activity at 1 uM by Eurofins kinase assay relative to control
[22] = target: Receptor-interacting serine/threonine-protein kinase 2 (Homo sapiens) (UniProt O43353); assay: Inhibition of human RIPK2 assessed as remaining activity at 1 uM by Eurofins kinase assay relative to control
[23] = target: Macrophage-stimulating protein receptor (Homo sapiens) (UniProt Q04912); assay: Inhibition of human Ron assessed as remaining activity at 1 uM by Eurofins kinase assay relative to control
[24] = target: Proto-oncogene tyrosine-protein kinase ROS (Homo sapiens) (UniProt P08922); assay: Inhibition of human Ros assessed as remaining activity at 1 uM by Eurofins kinase assay relative to control
[25] = target: Proto-oncogene tyrosine-protein kinase Src (Homo sapiens) (UniProt P12931); assay: Inhibition of human Src (1-530) assessed as remaining activity at 1 uM by Eurofins kinase assay relative to control
[26] = target: Serine/threonine-protein kinase 25 (Homo sapiens) (UniProt O00506); assay: Inhibition of human STK25 assessed as remaining activity at 1 uM by Eurofins kinase assay relative to control
[27] = target: Tyrosine-protein kinase SYK (Homo sapiens) (UniProt P43405); assay: Inhibition of human Syk assessed as remaining activity at 1 uM by Eurofins kinase assay relative to control
[28] = target: Serine/threonine-protein kinase TBK1 (Homo sapiens) (UniProt Q9UHD2); assay: Inhibition of human TBK1 assessed as remaining activity at 1 uM by Eurofins kinase assay relative to control
[29] = target: Angiopoietin-1 receptor (Homo sapiens) (UniProt Q02763); assay: Inhibition of human Tie2 assessed as remaining activity at 1 uM by Eurofins kinase assay relative to control
[30] = target: Non-receptor tyrosine-protein kinase TYK2 (Homo sapiens) (UniProt P29597); assay: Inhibition of human TYK2 assessed as remaining activity at 1 uM by Eurofins kinase assay relative to control
[31] = target: Wee1-like protein kinase (Homo sapiens) (UniProt P30291); assay: Inhibition of human Wee1 assessed as remaining activity at 1 uM by Eurofins kinase assay relative to control

## C[C@@H](Nc1c[nH]c(=O)c(C(=O)Nc2ccc(CN3CCN(C)CC3)cc2)c1)c1c(Cl)ccc(F)c1Cl
[1]
  Activity: 91%
[2]
  Activity: 50%
[3]
  Activity: 98%
[4]
  Activity: 89%
[5]
  Activity: 102%
[6]
  Activity: 100%
[7]
  Activity: 108%
[8]
  Activity: 108%
[9]
  Activity: 97%
[10]
  Activity: 103%
[11]
  Activity: 100%
[12]
  Activity: 85%
[13]
  Activity: 62%
[14]
  Activity: 98%
[15]
  Activity: 87%
[16]
  Activity: 95%
[17]
  Activity: 102%
[18]
  Activity: 107%
[19]
  Activity: 109%
[20]
  Activity: 98%
[21]
  Activity: 103%
[22]
  Activity: 102%
[23]
  Activity: 86%
[24]
  Activity: 90%
[25]
  Activity: 86%
[26]
  Activity: 114%
[27]
  Activity: 109%
[28]
  Activity: 107%
[29]
  Activity: 92%
[30]
  Activity: 77%
[31]
  Activity: 102%
